Drawing on patent US20210319279A1, this text covers beta-lactamase concentration (kinetic nitrocefin assay), fold change of induced rsX626 against its uninduced condition for 1 substance.

Amino acid sequences for entries named in this document (tags omitted). A change or cut given only in a name is not applied to a line headed by its entry.
UniProt P30874: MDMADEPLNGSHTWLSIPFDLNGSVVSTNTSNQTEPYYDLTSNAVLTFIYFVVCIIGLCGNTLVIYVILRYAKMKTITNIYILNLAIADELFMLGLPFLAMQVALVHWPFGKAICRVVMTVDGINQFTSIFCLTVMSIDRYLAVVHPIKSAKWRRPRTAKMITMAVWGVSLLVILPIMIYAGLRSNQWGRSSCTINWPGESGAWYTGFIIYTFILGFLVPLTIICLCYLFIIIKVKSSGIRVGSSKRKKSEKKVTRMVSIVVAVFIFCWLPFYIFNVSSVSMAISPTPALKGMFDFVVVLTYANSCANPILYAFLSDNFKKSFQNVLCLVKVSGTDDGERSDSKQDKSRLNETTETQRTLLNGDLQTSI
UniProt P61278: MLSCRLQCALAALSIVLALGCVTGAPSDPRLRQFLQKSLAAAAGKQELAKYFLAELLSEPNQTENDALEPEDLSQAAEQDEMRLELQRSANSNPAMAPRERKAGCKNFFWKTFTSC

This test deals with recombinant human somatostatin receptor 2 (SSTR2) expressed in the plasma membrane of yeast (human) (UniProt P30874). Description: cell-based or functional assay.

“And” between values parts separate entries of the source, which are not always exact repeats. Identical values can stand only once.

For “recombinant human SST-14 secreted by yeast (from UniProt P61278 103-116) (peptide)”, the beta-lactamase concentration (kinetic nitrocefin assay), fold change of induced rsX626 against its uninduced condition is 20 fold and 30 fold.
